Reference: patent US20060292203A1, “Methods and compositions for the treatment of ocular disorders” (TargeGen, Inc., priority 2005, published 2006)

Settings: pH 5

With Dexamethasone valerate the Water solubility was <<0.1 mg/mL.
